Apparent affinities of Ab-14 variants for a coronavirus HR2 peptide

All variants were tested on one target, the spike HR2 peptide PDVDLGDISGINAS (SARS-CoV-2).

Each scFv is VH, the linker GGGGSGGGGSGGGGS, VL, as in the parent Ab-14, and differs from it in the CDRs of the light chain only.
VH: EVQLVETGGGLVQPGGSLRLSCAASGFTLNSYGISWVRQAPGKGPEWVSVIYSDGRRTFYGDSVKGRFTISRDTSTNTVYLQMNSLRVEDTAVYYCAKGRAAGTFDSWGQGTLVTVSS
VL: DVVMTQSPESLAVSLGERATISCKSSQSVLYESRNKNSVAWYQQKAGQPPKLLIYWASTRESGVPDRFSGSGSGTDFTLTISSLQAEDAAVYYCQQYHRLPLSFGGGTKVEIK

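Phage display of a naive human antibody library on the peptide gave the parent. AAYL50 was designed without a model: most single CDR substitutions and a random sample of double and triple ones. In AlphaSeq, yeast of one mating type display the scFv and yeast of the other type display the target. After mating in shaken culture at 30 °C for 16 h, diploids were selected and their barcode pairs sequenced. The ratio of observed to expected reads was calibrated, replicate by replicate, on BCL2-family standards whose Kd was known from biolayer interferometry. There are three technical replicates.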

The parent's light chain CDRs are KSSQSVLYESRNKNSVA, WASTRES, QQYHRLPLS; each variant's own CDRs replace them letter for letter.
This list gathers variants with a substitution at R60 (VL, numbered from residue 1).
Values are log10 of the apparent Kd in nM; lower means stronger binding.
The mean shown is taken over the replicates in which the pair was detected.
A pair that was not seen in that replicate is written "nd"; this usually means weak binding, but a binder can also be missed.
The list is sorted by this average, lowest first, undetected variants last.
Nonspecific signal, from three strains lacking the peptide, appeared in 18% of pairings of library AAYL50, centred on 4.19 (5% of these signals below 2.99); values are not corrected for it. Also given: how often the same scFv was detected with the empty control strains.

For KSSQSVLYESRNKNSVA / WASTLEQ / QQYHRLPLS, the assay gave 0.62, 0.87, 0.69 (mean 0.73; controls 2 of 9).
For KSSQSVLYESRNKNSVA / AASTIES / QQYHRLPLS, the assay gave 0.98, 1.02, 0.88 (mean 0.96; controls 0 of 9).
For KSSQSVLYESRNKNSVA / WASTKES / EQYHRLPES, the assay gave 1.49, 1.81, 1.65 (mean 1.65; controls 0 of 9).
For RSSQSVLYESRNKNSVA / WASTTAS / QQYHRLPLS, the assay gave 1.71, 1.58, 2.00 (mean 1.77; controls 3 of 9).
For KSSQLELYESRNKNSVA / WASTKES / QQYHRLPLS, the assay gave 2.03, 1.91, 1.66 (mean 1.87; controls 0 of 9).
For KTSQSVLYESRNKNSVA / WASTKES / QQYHRLPLE, the assay gave 2.07, 1.83, 2.04 (mean 1.98; controls 3 of 9).
For KSSQLVLYESRNKNSVA / WASTKES / QQYHRLPLS, the assay gave 1.91, 2.19, 2.19 (mean 2.10; controls 0 of 9).
For KSSQSVLYESNNKNSVA / WASTCEL / QQYHRLPLS, the assay gave 2.65, 2.56, 2.67 (mean 2.63; controls 6 of 9).
For KSSQSVLYESRNKNSVA / WASTGDM / QQYHRLPLS, the assay gave 2.76, nd, nd (controls 0 of 9).
For YSSQSVLYESRNKNSVA / WASTPES / QQYHRLLLS, the assay gave 3.52, 2.67, nd (mean 3.09; controls 1 of 9).
For KSSQHVLYESRNDNSVA / WASTPES / QQYHRLPLS, the assay gave 3.82, 2.63, nd (mean 3.22; controls 1 of 9).
For KSSQSALYESRNKNSVA / WASTPES / QQYHRLRLS, the assay gave nd, 3.13, 3.58 (mean 3.36; controls 1 of 9).
For LSSQSVLYESRNKNSVA / WASTAER / QQYHRLPLS, the assay gave 3.72, nd, 3.47 (mean 3.59; controls 5 of 9).
For GSSQSVEYESRNKNSVA / WASTIES / QQYHRLPLS, the assay gave 4.01, 3.21, nd (mean 3.61; controls 4 of 9).
For KSSQDVLYESRNKNSVA / WASTHES / QQYWRLPLS, the assay gave 3.93, 3.29, 3.90 (mean 3.70; controls 7 of 9).
For KSSQSVLYESRNKTSAA / WASTIES / QQYHRLPLS, the assay gave 4.31, nd, 3.24 (mean 3.78; controls 4 of 9).
For YSSQSVLYESRNKNSVA / WASTIES / QQYHRLMLS, the assay gave 3.78, nd, nd (controls 3 of 9).
For KSSQSVLYESRNKNSLA / WHSTGES / QQYHRLPLS, the assay gave 3.82, nd, nd (controls 4 of 9).
For KSSQSVLYESRNCNSVA / WASTFES / QQYHMLPLS, the assay gave 3.91, nd, nd (controls 2 of 9).
For KSMQNVLYESRNKNSVA / WASTWES / QQYHRLPLS, the assay gave 5.20, 3.35, nd (mean 4.28; controls 0 of 9).
For MSSQSVLYESRNKNSVA / WASTCES / QQYHRLPLS, the assay gave 4.01, 4.95, nd (mean 4.48; controls 2 of 9).
For KSSQSVLYESRNKISVA / WASTVES / QQYHVLPLS, the assay gave nd, nd, 4.56 (controls 2 of 9).
For KSSQSVLYESRNKNSVA / WASTMES / QQWFRLPLS, the assay gave 4.74, nd, nd (controls 2 of 9).
For KSSFSVLYESRNKNSVA / WASTNES / QQYHRLKLS, the assay gave 5.03, 4.65, nd (mean 4.84; controls 5 of 9).
For KSSQSVLYESRNQNSVA / WASTCES / QQYHRLPLS, the assay gave 5.08, 3.58, 6.73 (mean 5.13; controls 5 of 9).
For KSSESVLYESRNKNSVA / WASTSES / QQYTRLPLS, the assay gave nd, nd, nd (controls 1 of 9).
For KKAQSVLYESRNKNSVA / WASTEES / QQYHRLPLS, the assay gave nd, nd, nd (controls 1 of 9).
For KSSQSELYESRNKNSDA / WASTCES / QQYHRLPLS, the assay gave nd, nd, nd (controls 6 of 9).
For KSSQSVLYESRNKNMVA / WASTAES / QQYHRAPLS, the assay gave nd, nd, nd (controls 2 of 9).
For KSSQSVLYESRNKNSEA / WASTMES / QQYDRLPLS, the assay gave nd, nd, nd (controls 1 of 9).
For KSSQSVLYESCNKNSVM / WASTTES / QQYHRLPLS, the assay gave nd, nd, nd (controls 0 of 9).
For KSSQSVLYESRNKNSCA / WASTHES / QPYHRLPLS, the assay gave nd, nd, nd (controls 1 of 9).
For KSSQSVLYESRNKNSVA / WASTGES / QCYHRLRLS, the assay gave nd, nd, nd (controls 0 of 9).
For KSSQSVLYESHNKNSVA / WASTLES / QQYHRLFLS, the assay gave nd, nd, nd (controls 0 of 9).
For KSSQSVLYESRNKNPVP / WASTSES / QQYHRLPLS, the assay gave nd, nd, nd (controls 0 of 9).
For KCSDSVLYESRNKNSVA / WASTHES / QQYHRLPLS, the assay gave nd, nd, nd (controls 0 of 9).
For KSSQSVTYESRNKNTVA / WASTIES / QQYHRLPLS, the assay gave nd, nd, nd (controls 0 of 9).
For KSLQSVLYESRNKNSVA / WHSTNES / QQYHRLPLS, the assay gave nd, nd, nd (controls 0 of 9).
For KDSQSVLYESRNKNNVA / WASTDES / QQYHRLPLS, the assay gave nd, nd, nd (controls 1 of 9).

For reference, 4 entries of the list once more:

{"CDR-L1": "KSSQDVLYESRNKNSVA", "CDR-L2": "WASTHES", "CDR-L3": "QQYWRLPLS", "replicates, log10 nM": "3.93, 3.29, 3.90", "log10 Kd (nM), mean": "3.70", "signal with controls": "7/9"}
{"CDR-L1": "KSSQSVLYESRNKNMVA", "CDR-L2": "WASTAES", "CDR-L3": "QQYHRAPLS", "replicates, log10 nM": "nd, nd, nd", "log10 Kd (nM), mean": "nd", "signal with controls": "2/9"}
{"CDR-L1": "KKAQSVLYESRNKNSVA", "CDR-L2": "WASTEES", "CDR-L3": "QQYHRLPLS", "replicates, log10 nM": "nd, nd, nd", "log10 Kd (nM), mean": "nd", "signal with controls": "1/9"}
{"CDR-L1": "KSSQSVLYESRNKNSVA", "CDR-L2": "WASTKES", "CDR-L3": "EQYHRLPES", "replicates, log10 nM": "1.49, 1.81, 1.65", "log10 Kd (nM), mean": "1.65", "signal with controls": "0/9"}

Data: MIT Lincoln Laboratory AlphaSeq set, Engelhart et al. 2022, doi:10.1038/s41597-022-01779-4, as distributed in FLAb.